# Patent US20100272648A1, “Methods of Identifying Improved NMDA Receptor Antagonists” (priority 2008, published 2010)
# Sequences of proteins named here, by UniProt entry; tags and fusion partners are left off. Residues count along the entry.
# UniProt Q00959, 23-1464: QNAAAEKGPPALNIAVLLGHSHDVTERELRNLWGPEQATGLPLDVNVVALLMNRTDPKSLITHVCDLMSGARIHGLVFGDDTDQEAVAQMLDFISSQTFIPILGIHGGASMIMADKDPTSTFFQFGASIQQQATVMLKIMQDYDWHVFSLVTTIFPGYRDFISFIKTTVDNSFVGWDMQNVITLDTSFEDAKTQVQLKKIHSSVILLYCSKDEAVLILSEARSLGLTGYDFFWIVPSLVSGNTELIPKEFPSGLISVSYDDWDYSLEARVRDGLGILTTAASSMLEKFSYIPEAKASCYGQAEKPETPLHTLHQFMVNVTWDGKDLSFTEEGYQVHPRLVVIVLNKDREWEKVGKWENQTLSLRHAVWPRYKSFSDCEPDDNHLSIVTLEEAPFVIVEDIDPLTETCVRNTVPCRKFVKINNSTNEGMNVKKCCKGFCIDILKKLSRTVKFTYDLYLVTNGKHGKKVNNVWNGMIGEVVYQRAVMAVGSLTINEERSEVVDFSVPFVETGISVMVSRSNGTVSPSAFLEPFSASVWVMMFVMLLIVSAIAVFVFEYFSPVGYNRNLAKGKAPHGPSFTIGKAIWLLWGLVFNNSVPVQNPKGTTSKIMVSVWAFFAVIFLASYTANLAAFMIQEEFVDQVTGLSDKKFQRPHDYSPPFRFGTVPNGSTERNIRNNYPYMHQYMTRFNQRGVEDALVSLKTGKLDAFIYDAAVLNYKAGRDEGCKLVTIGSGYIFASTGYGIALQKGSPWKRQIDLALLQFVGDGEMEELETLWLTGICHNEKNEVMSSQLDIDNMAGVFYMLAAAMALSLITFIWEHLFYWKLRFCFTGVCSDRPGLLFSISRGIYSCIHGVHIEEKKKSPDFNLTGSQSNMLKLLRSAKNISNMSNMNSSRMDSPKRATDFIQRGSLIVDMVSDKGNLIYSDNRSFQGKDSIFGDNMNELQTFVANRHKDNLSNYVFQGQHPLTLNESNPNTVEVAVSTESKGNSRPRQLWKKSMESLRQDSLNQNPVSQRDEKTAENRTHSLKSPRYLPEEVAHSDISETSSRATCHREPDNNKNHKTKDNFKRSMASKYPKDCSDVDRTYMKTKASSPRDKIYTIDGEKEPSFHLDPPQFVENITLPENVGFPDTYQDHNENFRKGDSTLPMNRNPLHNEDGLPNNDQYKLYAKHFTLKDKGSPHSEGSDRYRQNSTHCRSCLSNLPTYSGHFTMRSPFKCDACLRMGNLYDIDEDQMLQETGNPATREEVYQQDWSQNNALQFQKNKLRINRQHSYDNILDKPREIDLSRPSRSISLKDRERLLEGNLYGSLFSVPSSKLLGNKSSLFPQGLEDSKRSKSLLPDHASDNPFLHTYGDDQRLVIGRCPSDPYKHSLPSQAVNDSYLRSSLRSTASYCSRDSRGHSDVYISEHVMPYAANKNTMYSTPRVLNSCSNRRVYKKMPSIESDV
# How the values were obtained:
# [1] = target: NR1/NR2A receptors (Rattus norvegicus, UniProt P35439+Q00959); test: In vitro potency boost pH 6.9 vs 7.6 (NR1/NR2A, oocytes) versus infarct volume (FIG. 4); settings: potency boost pH 6.9 vs 7.6 versus infarct volume
# [2] = Locomotor activity of rats (light beam breaks); assay type: in vivo, Sprague-Dawley rats; settings: compared to vehicle injected control animals
# Protocol: Locomotor activity was monitored after injection for 2 hours.
substance,measurement,setting,value
(−) MK801,"mean within shaded area (criteria for superior drug performance), NR1/NR2A",[1],fall within the shaded area
same,"potency in causing induction of locomotor activity, fold less potent than (+)MK801",[2],at least 10 fold
